For the experiment, the target named is T1, GCGR (Homo sapiens, UniProt P47871).
T1 construct: host or cells: HEK293
The experiment is described as follows: In vitro GCGR agonistic activity test (cAMP, HEK293 cell line). In kind it is cell-based. The procedure:
The cell lines were constructed by Pharmaron Inc. See details in the table below.
The test compounds were diluted at a 5-fold dilution factor in 10 points, starting from an initial concentration of 200 nM.
1) The cell lines were cultured respectively in complete medium at 37° C. and 5% CO2.
2) After digestion with TrypLE, the cells were re-suspended in experimental buffer respectively, and inoculated in a CulturPlate-384 cell culture plate at a density of 2000 cells/well and at a volume of 15 μL/well.
1) Eu-cAMP tracer was freeze-thawed and diluted 50 fold with detection buffer; and Ulight-anti-cAMP was freeze-thawed and diluted 150 fold with detection buffer.
2) 5 μL of the test compounds were added respectively into experimental wells of the CulturPlate-384 cell culture plate, which was centrifuged at 200 g for 30 s, and left for stand at 37° C. for 30 min.
3) 10 μL of Eu-cAMP tracer was added and then 10 μL of Uligh-anti-cAMP was added into experimental wells respectively.
4) The reaction plate was centrifuged at 200 g at room temperature for 30 s and left for stand at 25° C. for 1 h.
5) Envision 2105 was used to collect data, with excitation light at 340 nm and emission light at 665 nm and 615 nm.

Sequences of proteins named here, by UniProt entry; tags and fusion partners are left off. Residues count along the entry.
UniProt P47871, 26-477, species assumed: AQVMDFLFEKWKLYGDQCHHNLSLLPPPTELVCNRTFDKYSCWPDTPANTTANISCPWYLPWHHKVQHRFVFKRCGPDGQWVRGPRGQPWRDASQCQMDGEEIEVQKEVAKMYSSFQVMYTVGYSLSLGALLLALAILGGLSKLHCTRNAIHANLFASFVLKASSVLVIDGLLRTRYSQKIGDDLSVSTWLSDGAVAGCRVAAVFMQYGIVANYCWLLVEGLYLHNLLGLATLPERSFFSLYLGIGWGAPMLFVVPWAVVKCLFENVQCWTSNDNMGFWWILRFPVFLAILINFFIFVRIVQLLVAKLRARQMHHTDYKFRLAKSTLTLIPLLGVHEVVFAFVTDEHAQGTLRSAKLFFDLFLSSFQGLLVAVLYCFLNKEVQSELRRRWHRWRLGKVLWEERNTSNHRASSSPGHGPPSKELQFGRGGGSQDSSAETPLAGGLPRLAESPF

Usually EC50 stands for the concentration at which the effect is half-maximal. Turning to `CC[C@H](C)[C@H](NC(=O)[C@H](Cc1ccccc1)NC(=O)[C@H](C)NC(=O)C(C)(C)NC(=O)[C@H](CCC(N)=O)NC(=O)[C@H](C)NC(=O)[C@@H]1CCCCNC(=O)CN(C(=O)COCCOCCNC(=O)CC[C@H](NC(=O)CCCCCCCCCCCCCCCCCCP(=O)(O)O)C(=O)O)CC(=O)NCCCC[C@H](NC(=O)[C@](C)(CC(C)C)NC(=O)[C@@H](NC(=O)[C@H](CO)NC(=O)[C@H](Cc2ccc(O)cc2)NC(=O)[C@H](CC(=O)O)NC(=O)[C@H](CO)NC(=O)[C@@H](NC(=O)[C@H](Cc2ccccc2)NC(=O)[C@@H](NC(=O)CNC(=O)[C@H](CCC(N)=O)NC(=O)C(C)(C)NC(=O)[C@@H](N)Cc2ccc(O)cc2)[C@@H](C)O)[C@@H](C)O)[C@@H](C)CC)C(=O)N[C@@H](CC(=O)O)C(=O)N[C@@H](CCCCN)C(=O)N1)C(=O)N[C@@H](CCC(=O)O)C(=O)N[C@@H](Cc1ccc(O)cc1)C(=O)N[C@@H](CC(C)C)C(=O)N[C@@H](CC(C)C)C(=O)N[C@@H](CCC(=O)O)C(=O)NCC(=O)NCC(=O)N1CCC[C@H]1C(=O)N[C@@H](CO)C(=O)N[C@@H](CO)C(=O)NCC(=O)N[C@@H](C)C(=O)N1CCC[C@H]1C(=O)N1CCC[C@H]1C(=O)N1CCC[C@H]1C(=O)N[C@@H](CO)C(N)=O` [Example 43, YAibQGT FTSDY SIα- MeL^1KD K^1KAQAib AFIEY LLEGG PSSGA PPPS-NH2 (SEQ ID NO: 24)], the EC50 stood at 42 pM.
